Consider one molecule from US20120151612A1, “NON-SURGICAL APPROACH TO PREVENT AND CORRECT CRANIOFACIAL MALFORMATIONS DURING DEVELOPMENT” (UNIVERSITY OF SOUTHERN CALIFORNIA, priority 2010, published 2012).

Molecules are shown by their SMILES. “Also recorded” adds a separate entry of the source.

In the assay the test system is Tgfbr2^fl/fl; Wnt1-Cre MEPM cells. As to the kind of experiment: Lipid droplet accumulation (Oil Red O staining) in primary MEPM cells. Format: cell-based, mice. On the procedure:
Histological examination. Cryosections were stained with Oil Red O to detect lipid production. Prepared sections were washed three times in phosphate buffer saline (PBS) (each wash 5 min) and fixed in 4% formaldehyde in 0.1 M phosphate buffer for 1 h at room temperature. Sections were then incubated for 15 min in 60% isopropanol and stained for 15 min with a filtered solution of three parts of Oil Red O (saturated in isopropanol) and two parts of ddH2O. For the next step, slides were briefly rinsed in 60% isopropanol and washed thoroughly in ddH2O. Cells were counterstained in Mayers Hematoxylin Solution.
Primary MEPM cells. Primary MEPM cells were obtained from E13.5 embryos. Briefly, palatal shelves were dissected at E13.5, and trypsinized for 30 minutes at 37° C. in a CO2 incubator. After pipetting thoroughly, cells were cultured in Dulbecco's modified Eagle's medium containing 10% fetal bovine serum supplemented with penicillin, streptomycin, L-glutamate, sodium pyruvate, and nonessential amino acids.

In the case of `O=[N+]([O-])c1ccc(-c2nc(-c3ccncc3)c(-c3ccc(F)cc3)[nH]2)cc1` [PD169316, 4-[5-(4-fluorophenyl)-2-(4-nitrophenyl)-1H-imidazol-4-yl]-pyridine], the lipid droplet accumulation entry was “failed to detect lipid droplet accumulation; also recorded: Lipid droplets did not accumulate”.
